Data published in patent US20200331855A1, “CO-CRYSTAL OF TOCOPHEROL AND PROLINE AND PREPARATION METHOD THEREOF” (priority 2017, published 2020).

Legend:
Format in all cases: physicochemical
[1] = Acceleration test (40° C./75% relative humidity), synthetic tocopherol vs co-crystal, total tocopherol content; settings: Month 0, initial set at 100%
Description: The content was determined by HPLC, the content was calculated by the external standard method, and the content is calculated based on the total tocopherol content. Both the initial tocopherol contents in the synthetic tocopherol itself and in the co-crystals were set at 100%.

[2] = Accelerated test stability (40° C./75% relative humidity), D-α-tocopherol vs co-crystal
Description: (§1) The content was determined by HPLC, and the content was calculated by the external standard method.

[3] = High temperature test (60° C.), content by HPLC and appearance
Description: as §1

[4] = Long-term test stability (25° C./60% relative humidity)
Description: as §1

[5] = Strong light irradiation test (5500 Lux), content by HPLC and appearance; settings: 25° C.
Description: as §1

[6] = Month 0, initial content set at 100%

Substance | content [1] [%] | content [2, 6] [%] | content ([2]; Month 1) [%] | content ([2]; Month 2) [%] | content ([2]; Month 3) [%] | content ([3]; Day 0, HPLC, initial content set at 100%) [%] | content ([3]; Day 5, % of initial content) [%] | content ([3]; Day 10, % of initial content) [%] | content ([3]; Day 20, % of initial content) [%] | content ([3]; Day 30, % of initial content) [%] | content [4, 6] [%] | content ([4]; Month 3) [%] | content ([5]; near UV 90 μW/cm^2, Day 0, initial content set at 100%) [%] | content ([5]; near UV 90 μW/cm^2, Day 5) [%] | content ([5]; near UV 90 μW/cm^2, Day 10) [%] | content ([5]; near UV 90 μW/cm^2, Day 20) [%]
co-crystal of synthetic tocopherol and L-proline | 100.0 | – | – | – | – | – | – | – | – | – | – | – | – | – | – | –
co-crystal of D-α-tocopherol and L-proline | – | 100 | 100.6 | 100.1 | 99.7 | 100 | 98.5 | 96.9 | 96.9 | 95.4 | 100.0 | 99.6 | 100 | 96.3 | 96.1 | 97.3
